# Assay results from patent US5326774A, “Pharmaceutical preparation of antihypertensive, antianginal, antiarrhythmic and antiglaucomic action” (priority 1992, dated 1994).
# Assay: in vivo
# Details: mouse
compound,measurement,setting,value
"CC(CCc1ccccc1)NCC(O)c1ccc(O)c(C(N)=O)c1 (centres unmarked) [Labetalol, labetalol]",LD50 at 72 h,iv,97.5 mg/kg
same,LD50 at 72 h,po,660 mg/kg
